# Ab-95 light chain CDR variants: yeast mating affinities

The target is the same throughout: PDVDLGDISGINAS, from the HR2 region of SARS-CoV-2 spike.

Ab-95 is the parent antibody, in scFv form: VH, then a 15-residue (Gly4Ser)3 linker, then VL. The heavy chain is unchanged in all variants.
VH: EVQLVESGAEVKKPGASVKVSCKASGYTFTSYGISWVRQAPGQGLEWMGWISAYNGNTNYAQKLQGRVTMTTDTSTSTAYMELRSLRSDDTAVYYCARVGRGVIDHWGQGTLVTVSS
VL: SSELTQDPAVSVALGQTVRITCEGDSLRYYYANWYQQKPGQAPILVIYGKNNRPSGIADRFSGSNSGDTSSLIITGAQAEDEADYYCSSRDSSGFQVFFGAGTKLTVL

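The parent was found by panning a naive human phage display library on the peptide. AAYL52 was designed without a model: most single CDR substitutions and a random sample of double and triple ones. In AlphaSeq, yeast of one mating type display the scFv and yeast of the other type display the target. After mating in shaken culture at 30 °C for 16 h, diploids were selected and their barcode pairs sequenced. A regression on co-assayed BCL2-family reference pairs converts the normalised counts of each replicate to an apparent Kd. The assay was run in three technical replicates.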

Variants are written as CDR1, CDR2 and CDR3 of the light chain (limits as in the source). Parent: EGDSLRYYYAN, GKNNRPS, SSRDSSGFQVF. Every variant below is changed at N51 of the VL (sequential numbering). Values are apparent Kd, the geometric mean of the replicates that gave a signal; lower means stronger binding. "nd" marks a missing value. The strain was present, yet no cells mated with the target were sequenced in any replicate, which points to weak or no binding. Order: sorted from the lowest average up, undetected variants last. Parent in this assay: reference entry 200 nM, copy in this library 180 nM.

Variant EGDSLRYGYAN | GKYNRPS | SKRDSSGFQVF gave 63 nM (3 of 3 replicates). Variant EGDSLRAYYAN | GKENRPS | SCRDSSGFQVF showed 190 nM (3 of 3 replicates). Variant EGDSLNYYYAN | GKEIRPS | SSRDSSGFQVF showed 360 nM (3 of 3 replicates). With EGHSLRYYYAN | GKSNRPS | SSRDSSGFQVI the result was 660 nM (3 of 3 replicates). For EGDSLRYYYAN | GKANRPS | SSRDSSGFPNF, the assay gave 710 nM (3 of 3 replicates). Variant FGDSLRYYYAN | GKHNRPS | SSRDSSGNQVF gave 950 nM (1 of 3 replicates). Variant EGDSLRYYYAN | GKENIPS | SSRDSSGFQVF showed 1.8 µM (3 of 3 replicates). With EGDSLRYYYAN | GKTNRPS | SSRDSSGFPVH the result was 1.9 µM (3 of 3 replicates).

Variant EGDSLRYYYAN | GKANRPS | SIRHSSGFQVF gave 2.3 µM (2 of 3 replicates). Variant ENDSLRYYYTN | GKTNRPS | SSRDSSGFQVF gave 2.3 µM (3 of 3 replicates). With EGDSLRYYYAN | GKPNMPS | SSKDSSGFQVF the result was 3.1 µM (2 of 3 replicates). With EGDSERYYCAN | GKENRPS | SSRDSSGFQVF the result was 3.1 µM (1 of 3 replicates). Variant EGDSLRYYYCN | GKDNRPS | SSRDSSGFQVF showed 3.4 µM (3 of 3 replicates). With EGDSLRYYYAN | GKDNRPS | SSRDSSGFNWF the result was 3.5 µM (2 of 3 replicates). With EGDSLRYYYAN | GKFNAPS | SSRDSSGFQVF the result was 4.1 µM (3 of 3 replicates). Variant EGDSLRYYYAN | GKCNRPS | SSRDSSAWQVF gave 4.5 µM (2 of 3 replicates).

Variant EGDSLRYYYAN | GKENRPS | SSIDSSGRQVF showed 5.7 µM (3 of 3 replicates). For AGDWLRYYYAN | GKGNRPS | SSRDSSGFQVF, the assay gave 6.0 µM (3 of 3 replicates). Variant EGDSLRYYYAN | GKFDRPS | SVRDSSGFQVF showed 13 µM (3 of 3 replicates). Variant EGDSLRYYYAN | AKQNRPS | SSRDSSGFDVF gave 13 µM (3 of 3 replicates). Variant EGDWLRYYYAN | GKKNRPS | SSRDSSGVQVF gave 19 µM (1 of 3 replicates). Variant EGDSLRYYTAN | GKKNRPS | SSRDSSGFQVM gave 20 µM (1 of 3 replicates). For EGDSLRYYYEN | GKVNRPS | SSADSSGFQVF, the assay gave 25 µM (1 of 3 replicates). For EGDSLRYYYAF | GKQNRPY | SSRDSSGFQVF, the assay gave 27 µM (2 of 3 replicates).

With EGDSLLYYYAK | GKHNRPS | SSRDSSGFQVF the result was 29 µM (2 of 3 replicates). For EGDPLRYYYAN | GKWNRPS | SSRDSSGFQVF, the assay gave 32 µM (1 of 3 replicates). Variant EGDVLRYYLAN | GKCNRPS | SSRDSSGFQVF showed 33 µM (2 of 3 replicates). For EGDSLRYYYCN | GKPNRPS | SSRDSSGCQVF, the assay gave 34 µM (3 of 3 replicates). Variant EGDSLRYYMAN | GKYNRPS | SSRDSSGFQLF showed 36 µM (2 of 3 replicates). Variant EGDSLRYYYAE | GKVNRPS | SSRDSSGFQVA showed 43 µM (2 of 3 replicates). For EGDSLMYYYAN | GKMNRPS | ESRDSSGFQVF, the assay gave 44 µM (1 of 3 replicates). Variant HGDSLRYYYAN | IKKNRPS | SSRDSSGFQVF showed 48 µM (1 of 3 replicates).

Variant EGDSLRYYYAN | GEWNRPS | SSRPSSGFQVF gave 62 µM (1 of 3 replicates). With EGDSQRYYYAN | GHRNRPS | SSRDSSGFQVF the result was 62 µM (2 of 3 replicates). Variant EGDSLRYYYAN | RKDNRPS | SSRDSSGFQDF gave 81 µM (2 of 3 replicates). For EGDSLRYYYMN | GKLNRPS | SSQDSSGFQVF, the assay gave nd (0 of 3 replicates). Variant EGDSLRYYYAN | GKFNRPA | CSRDSSGFQVF gave nd (0 of 3 replicates). With EGDLLRYYYAN | GKGNRPS | SSRDSSGFTVF the result was nd (0 of 3 replicates). Variant ECDSLRYYYAN | GKMNRPS | SSRDSSGFQDF gave nd (0 of 3 replicates). With EADSLRYYYAN | GKINRPS | SARDSSGFQVF the result was nd (0 of 3 replicates).

For EGDSLRYYYAN | GKRNLPS | SSRPSSGFQVF, the assay gave nd (0 of 3 replicates). Variant EGDSLRYYYAN | LKLNRPS | SSVDSSGFQVF showed nd (0 of 3 replicates).

Three control strains display no target. For library AAYL52, 28% of the pairings with them gave a signal, with a median of 8.2 µM and one signal in twenty below 800 nM, so weak values seen in few replicates may be background.

Source: Engelhart et al. 2022 (doi:10.1038/s41597-022-01779-4), MIT Lincoln Laboratory and A-Alpha Bio; data file from the FLAb repository.